# In article PMC6231190 (ACS Medicinal Chemistry Letters, 2018):
# Tested on: HeLa cell line with the ubiquitin fusion degradation reporter UbG76V-GFP
# Test: UbG76V-GFP accumulation assay
smiles,measurement,setting,value
Cc1cc(OCc2nnc(SC3CCCC3)n2-c2cccnc2)ccc1-c1ccc(S(C)(=O)=O)cc1 [NMS-873],EC50,"Homo sapiens, HeLa, 1 h, read-out: Ub^G76 V-GFP EC50 (μM), 1 h",1.42 µM
same,EC50,"read-out: Ub^G76 V-GFP EC50 (μM), 6 h, highest concentration 40 μM",2.1 µM

# Where two headings read alike, the source gives them in different places.
